Data from article PMC6089664 (Clinical pharmacology and therapeutics, 2017).
Several values for one entry are separate records, joined by “and”; a condition that tells them apart may be missing. Identical values can stand only once.

Assays:
[1] = system: IL-6-stimulated STAT-3 phosphorylation (pSTAT-3); settings: baricitinib trough concentrations, CD8+ T cells
[2] = Population pharmacokinetic; assay type: in vivo, human; settings: for AUC24,SS/Dose: AUC24,SS/total daily dose; for AUC24,SS/Dose / CL/F / V/F: geometric mean (%CV); for CL/F / V/F: final PK visit
[3] = eGFR <120 ml/min/1.73 m^2, <20kg (n=2)
[4] = eGFR <120 ml/min/1.73 m^2, >40kg (n=3)
[5] = eGFR ≥120 ml/min/1.73 m^2, 20–40kg (n=5)
[6] = eGFR ≥120 ml/min/1.73 m^2, <20kg (n=2)
[7] = eGFR ≥120 ml/min/1.73 m^2, >40kg (n=5)

In the case of `CCS(=O)(=O)N1CC(CC#N)(n2cc(-c3ncnc4[nH]ccc34)cn2)C1` [baricitinib, Baricitinib], the “mean pSTAT-3 MFI ratio compared to healthy controls” value [1] is reported as “no notable difference”, the “AUC24,SS relative to RA population at 4 mg once daily” value ([2]; 2388 nM*h vs 1304 nM*h, higher) is reported as 1.83 fold and the “AUC24,SS/Dose higher in patients with eGFR below 120 than in weight-matched patients with eGFR ≥120 mL/min/1.73m^2” value ([2]; <20 kg and >40 kg weight categories) is reported as 52–59%. The “AUC24,SS/Dose” value [2, 3] was 513 (4.7%) nM*h/mg, the CL/F [2, 3] was 5.3 (4.7%) L/hr and the “AUC24,SS/Dose” value [2, 4] was 293 (82.7%) nM*h/mg. For the same molecule, the CL/F [2, 4] was 9.2 (82.7%) L/hr, the V/F [2, 4] was 103.0 (7.9%) L and the “AUC24,SS/Dose” value [2, 5] was 292 (36.6%) nM*h/mg. The CL/F [2, 5] was 9.2 (CV 36.6%) L/hr and 9.2 (36.6%) L/hr, the V/F [2, 5] was 66.2 (25.5%) L and the “AUC24,SS/Dose” value [2, 6] was 322 (12.6%) nM*h/mg. The CL/F [2, 6] was 8.4 (CV 12.6%) L/hr and 8.4 (12.6%) L/hr, the V/F [2, 6] was 53.1 (17.3%) L and the “AUC24,SS/Dose” value [2, 7] was 193 (22.2%) nM*h/mg. For the same molecule, the CL/F [2, 7] was 13.9 (CV 22.2%) L/hr and 13.9 (22.2%) L/hr and the V/F [2, 7] was 141.0 (28.0%) L.
